Reference: EP4419152B1, “USE OF A COMPOSITION COMPRISING PERFORMIC ACID AS BIOCIDE IN INDUSTRIAL COOLING SYSTEMS” (dated 2026)

How the values were obtained:
[1] = system: enterococci; assay: Disinfection effectiveness of peracids, enterococci; conditions: for enterococci; literature data and laboratory tests
[2] = system: E. coli; assay: Disinfection effectiveness of peracids, E. coli; conditions: for E. coli; literature data and laboratory tests
[3] = system: L. pneumophila; assay: Viability of L. pneumophila after disinfection with PFA; conditions: contact time 10 minutes
[4] = system: microbial load; assay: Microbial regrowth test in cooling tower basin water, EasyCult kits; conditions: Example 1b; for microbial load: Figure 3, water of 06/05, diluted 1:100, 48 hours
[5] = system: aerobic microbial loads; assay: Microbial regrowth test in cooling tower basin water, vials by NACE TM 0194-2004 method; conditions: Example 1c, Figure 5, white diluted 1 to 30, N=8 vials

| SMILES | disinfection effectiveness (rank order of peracids) [1] | disinfection effectiveness (rank order of peracids) [2] | Reduction % ([3]; 1 mg PFA/L) [%] | Bacterial density, cfu/mL Average ([3]; 1 mg PFA/L, detection limit 10 cfu/mL) | Reduction % ([3]; 2 mg PFA/L) [%] | Reduction % ([3]; 4 mg PFA/L) [%] | microbial load ([4]; 10ppm of Formic acid) | microbial load ([4]; 50ppm of Formic acid) | biocidal effect ([4]; 10 and 50 mg/L formic acid solution) | Positive vials ([5]; 10ppm of Formic acid) | Positive vials ([5]; 30ppm of Formic acid) |
| --- | --- | --- | --- | --- | --- | --- | --- | --- | --- | --- | --- |
| O=COO | PFA > PPA | PFA > PAA | 99.8 | 1.3 x 10^2 cfu/mL | 100 | 100 |  |  |  |  |  |
| O=CO |  |  |  |  |  |  | at least 10^6 UFC | at least 10^6 UFC | would not seem to perform biocidal effect | 7/8 | 7/8 |
